Columns and labels:
GL261 mouse glioma = details: 10 mg/kg intratumorally, a single time
CT26 tumor = details: 10 mg/kg intratumorally, a single time

How did the “activity at local sc tumors” value (GL261 mouse glioma) turn out when `O=[P@]1(S)OC[C@H]2O[C@@H]3[C@H](F)[C@@H]2O[P@](=O)(S)OC[C@H]2O[C@H]([C@H](F)[C@@H]2O1)n1cnc2c(ncnc21)NC/C=C/CNc1ncnc2c1ncn23` [Compound 1a] was run?
The value was “potent activity”.

And the “curative systemic activity (treated animals)” value (GL261 mouse glioma; into the sc tumor)?
The value was 5 of 8.

What about the “activity towards the local sc tumors” value (CT26 tumor) of the same compound?
The value was “potent activity”.

What about the “curative systemic activity (treated animals)” value (CT26 tumor; into the sc tumor) of the same compound?
The value was 9 of 10.
